Earlier results in PMC3758776.

By UniProt entry, the sequences of proteins in these tests, tags left out. Residues count along the entry.
UniProt P19235, 25-508: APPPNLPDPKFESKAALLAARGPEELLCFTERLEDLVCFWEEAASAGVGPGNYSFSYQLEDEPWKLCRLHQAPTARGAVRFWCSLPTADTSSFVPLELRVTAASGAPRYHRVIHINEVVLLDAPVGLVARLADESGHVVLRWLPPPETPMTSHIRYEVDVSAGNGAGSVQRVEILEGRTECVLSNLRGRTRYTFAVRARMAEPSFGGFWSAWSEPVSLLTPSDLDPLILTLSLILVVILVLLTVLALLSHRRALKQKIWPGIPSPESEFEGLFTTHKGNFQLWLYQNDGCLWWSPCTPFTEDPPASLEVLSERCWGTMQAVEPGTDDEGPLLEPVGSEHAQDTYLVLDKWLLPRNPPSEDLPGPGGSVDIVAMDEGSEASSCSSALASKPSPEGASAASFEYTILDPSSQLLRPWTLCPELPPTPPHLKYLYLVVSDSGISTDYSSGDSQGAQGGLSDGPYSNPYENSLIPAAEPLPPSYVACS

Biological target: erythropoietin receptor (medullary collecting duct cells) (Homo sapiens) (UniProt P19235)

Substance: Erythropoietin (from UniProt P01588)
- Kd: 1.3 nM
